{
  "source": "patent US11851445B2",
  "about": "“Compounds and uses thereof” (Foghorn Therapeutics Inc., priority 2020, dated 2023)",
  "test": "Interconversion between Enantiomer 1 and Enantiomer 2 in cell medium, chiral LC/MS-MS",
  "settings": "Enantiomer 1 Dosing, 0.2 μM, 37° C., 0.5 h, Time 0 h",
  "description": "For the assessment of interconversion between Enantiomer 1 and Enantiomer 2 in cell medium, the following test was performed. Enantiomer 1 and Enantiomer 2 (each was 40 μM in DMSO) was spiked into cell medium (DMEM+Glutamax+10% FBS) at a final concentration of 0.2 μM and incubated at 37° C. and 5% CO2 in duplicate. At designated time point, aliquot (50 μL) was taken and processed by the addition of 150 μL of acetonitrile containing 0.1% formic acid and internal standard for LC/MS-MS analysis. Peak areas of both Enantiomer 1 and Enantiomer 2 were determined for each sample using a chiral specific analytical method.",
  "data": [
    {"smiles": "COc1cc(-c2cn(C)c(=O)c3cnc(N4CCC4)cc23)cc(OC)c1CN1CCC(CN2CCC3(CC2)CN(c2ccc4c(c2)C(=O)N([C@@H]2CCC(=O)NC2=O)C4)C3)CC1", "note": "(single isomer, unassigned)", "values": [
      {"measurement": "% Enantiomer 2", "result": 0.0, "unit": "%"}
    ]}
  ]
}
